{"source": "patent EP1243590A2", "about": "“Nucleotide analog composition and synthesis method” (GILEAD SCIENCES, INC., priority 1997, dated 1999)", "note": "Where two headings read alike, the source gives them in different places."}
{"substance": "9-[2-(R)-[[bis[[(isopropoxycarbonyl)oxy]methoxy] phosphinoyl]methoxy]propyl]-adenine•fumaric acid (1:1) [BPPF]", "values": [{"measurement": "solubility", "setting": "0.1 n hcl", "result": "15 to 100", "unit": "mg/mL"}, {"measurement": "solubility", "setting": "acetone", "result": "15 to 100", "unit": "mg/mL"}, {"measurement": "solubility", "setting": "acetonitrile", "result": "3 to 15", "unit": "mg/mL"}, {"measurement": "solubility", "setting": "deionized water, pH 3.3", "result": "3 to 15", "unit": "mg/mL"}, {"measurement": "solubility", "setting": "dimethylformamide", "result": 428, "unit": "mg/mL"}, {"measurement": "solubility", "setting": "ethanol", "result": "15 to 100", "unit": "mg/mL"}, {"measurement": "solubility", "setting": "isopropanol", "result": "15 to 100", "unit": "mg/mL"}, {"measurement": "solubility", "setting": "isopropyl acetate", "result": "3 to 15", "unit": "mg/mL"}, {"measurement": "solubility", "setting": "isopropyl acetate:water (1:1 v/v)", "result": "15 to 100", "unit": "mg/mL"}, {"measurement": "solubility", "setting": "methanol", "result": "15 to 100", "unit": "mg/mL"}]}
